Publication PMC8602566 (Frontiers in Oncology, 2021)

Biological target: T1, HDAC10 (Homo sapiens, UniProt Q969S8)
T1 sequence (Q969S8 1-669): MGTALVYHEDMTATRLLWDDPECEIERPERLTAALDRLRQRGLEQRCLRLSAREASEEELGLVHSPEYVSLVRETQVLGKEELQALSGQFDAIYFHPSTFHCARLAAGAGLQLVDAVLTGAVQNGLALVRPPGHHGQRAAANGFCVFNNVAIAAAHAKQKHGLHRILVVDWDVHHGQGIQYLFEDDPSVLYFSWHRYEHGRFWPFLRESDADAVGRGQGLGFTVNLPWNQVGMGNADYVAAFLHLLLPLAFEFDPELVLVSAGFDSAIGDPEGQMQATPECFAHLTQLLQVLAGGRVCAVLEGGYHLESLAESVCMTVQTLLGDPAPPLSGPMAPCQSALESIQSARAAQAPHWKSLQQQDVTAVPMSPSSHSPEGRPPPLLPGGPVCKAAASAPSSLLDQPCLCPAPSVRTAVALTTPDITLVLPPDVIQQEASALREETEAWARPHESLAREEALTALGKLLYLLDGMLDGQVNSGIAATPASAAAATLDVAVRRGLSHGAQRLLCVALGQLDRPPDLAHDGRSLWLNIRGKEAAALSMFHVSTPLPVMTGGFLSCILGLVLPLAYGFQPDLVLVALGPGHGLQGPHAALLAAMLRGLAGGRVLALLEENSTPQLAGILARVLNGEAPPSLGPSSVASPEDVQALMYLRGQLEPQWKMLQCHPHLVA
Assay: HDACs inhibition assay, HDAC10

O=C(CCCCCCC(=O)Nc1ccccc1)NO [Vorinostat, suberoylanilide hydroxamic acid, reference compound]
IC50: 0.76 µM
